The values that follow come from US8263592B2, “Equilibrative nucleoside transporter ENT1 inhibitors” (Janssen Pharmaceutica NV, priority 2007, dated 2012).

The chains behind the UniProt entries cited, without tags or fusion partners.
UniProt Q99808, whole entry: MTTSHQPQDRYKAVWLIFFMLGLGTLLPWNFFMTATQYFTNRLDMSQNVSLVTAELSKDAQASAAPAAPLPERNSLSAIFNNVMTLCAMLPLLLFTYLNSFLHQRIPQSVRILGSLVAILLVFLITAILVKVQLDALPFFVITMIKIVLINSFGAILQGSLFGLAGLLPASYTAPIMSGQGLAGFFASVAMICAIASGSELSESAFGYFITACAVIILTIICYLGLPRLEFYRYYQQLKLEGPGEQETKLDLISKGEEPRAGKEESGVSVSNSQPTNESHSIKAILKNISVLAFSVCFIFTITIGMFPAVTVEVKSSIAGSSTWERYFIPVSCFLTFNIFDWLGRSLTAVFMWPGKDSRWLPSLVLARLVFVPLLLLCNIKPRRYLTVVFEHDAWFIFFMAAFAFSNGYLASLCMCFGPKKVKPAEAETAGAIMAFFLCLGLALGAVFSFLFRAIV

The target of the assay is human ENT1 transporter (Homo sapiens, UniProt Q99808). The assay can be described thus: hENT1-NBMPR-ERYTH binding assay ([3H]NBMPR, human erythrocytes). The following applies: [3H]NBMPR 1 nM, washed human red blood cells 1:200, 30 minutes at room temperature; pIC50=-log(IC50).
As to `Nc1ccc2c(c1Cl)OC1(CCN(CCNC(=O)c3c(Cl)cccc3Cl)CC1)NC2=O`, the “pIC50 values for ENT1 transporter inhibition” value was determined as 7.59.
Consider `Cc1cc(NC2CCCC2)c2c(c1)C(=O)NC1(CCN(CCNC(=O)c3c(C)cccc3C)CC1)O2`, for which the “pIC50 values for ENT1 transporter inhibition” value is 7.905.
To `O=C1NC2(CCN(CCNC(=O)c3c(Cl)cccc3Cl)CC2)Oc2cc(OC3CCCC3)ccc21` belongs 8.80; to `CNc1cc2c(cc1Cl)C(=O)NC1(CCN(CCNC(=O)c3c(Cl)cccc3Cl)CC1)O2`, 8.19.
With `O=C1NC2(CCN(CCNC(=O)c3c(Cl)cccc3Cl)CC2)Oc2c(NCCCO)cc(Cl)cc21`, the “pIC50 values for ENT1 transporter inhibition” value turned out to be 7.
The same measure for `CNc1ccc2c(c1)OC1(CCN(CCNC(=O)c3c(Cl)cccc3Cl)CC1)NC2=O`: 7.28; for `Nc1cc(Cl)cc2c1OC1(CCN(CCNC(=O)c3c(Cl)cccc3Cl)CC1)NC2=O`: 7.58; for `O=C(NCCN1CCC2(CC1)CC(=O)c1c(F)cccc1O2)c1c(Cl)cccc1Cl`: 6.84.
The same measure for `Cc1cccc(C)c1C(=O)NCCN1CCC2(CC1)NC(=O)c1cc(Cl)cc(OC3CCCC3)c1O2`: 6.88; for `O=C1NC2(CCN(CCNC(=O)c3c(Cl)cccc3Cl)CC2)Oc2cc(N3CCOCC3)c(Cl)cc21`: 8.69; for `CC(=O)NCCCNc1cc2c(cc1Cl)C(=O)NC1(CCN(CCNC(=O)c3c(Cl)cccc3Cl)CC1)O2`: 8.11.
To `CC(=O)N1CCC(Nc2cc(Cl)cc3c2OC2(CCN(CCNC(=O)c4c(Cl)cccc4Cl)CC2)NC3=O)CC1` belongs 8.31; to `Cc1cc2c(cc1Cl)C(=O)CC1(CCN(CCNC(=O)c3c(Cl)cccc3Cl)CC1)O2`, 8.12; to `COc1ccc2c(c1)OC1(CCN(CCNC(=O)c3c(Cl)cccc3Cl)CC1)CC2=O`, 7.05.
Turning to `CCOc1ccc2c(c1)OC1(CCN(CCNC(=O)c3c(Cl)cccc3Cl)CC1)CC2=O`, the “pIC50 values for ENT1 transporter inhibition” value is on record as 7.82.
To `CC(C)Oc1cc(Cl)cc2c1OC1(CCN(CCNC(=O)c3c(Cl)cccc3Cl)CC1)NC2=O` belongs 7.72.
For `O=C1NC2(CCN(CCNC(=O)c3c(Cl)cccc3Cl)CC2)Oc2c1ccc(N1CCOCC1)c2Cl`, the “pIC50 values for ENT1 transporter inhibition” value is listed as 8.215.
Consider `O=C1NC2(CCN(CCNC(=O)c3c(Cl)cccc3Cl)CC2)Oc2cc(NC3CCOCC3)c(Cl)cc21`, for which the “pIC50 values for ENT1 transporter inhibition” value turned out to be 8.48.
The same measure for `Cc1cccc(C)c1C(=O)NCCN1CCC2(CC1)NC(=O)c1ccc(NCCCO)c(Cl)c1O2`: 7.32.
To `COCCCNc1ccc2c(c1Cl)OC1(CCN(CCNC(=O)c3c(Cl)cccc3Cl)CC1)NC2=O` belongs 8.815; to `O=C1NC2(CCN(CCNC(=O)c3c(Cl)cccc3Cl)CC2)Oc2c1ccc(NCCCO)c2Cl`, 8.28; to `Nc1cc(Cl)cc2c1OC1(CCN(CCNC(=O)c3c(Cl)cccc3Cl)CC1)CC2=O`, 7.54.
To `CC(C)(C)OC(=O)N1CCC(Nc2cc3c(cc2Cl)C(=O)NC2(CCN(CCNC(=O)c4c(Cl)cccc4Cl)CC2)O3)CC1` belongs 9.70.
As to `Cc1cccc(C)c1C(=O)NCCN1CCC2(CC1)CC(=O)c1cc(Cl)c(NC3CCCC3)cc1O2`, the “pIC50 values for ENT1 transporter inhibition” value worked out at 8.69.
The same measure for `Cc1cc2c(cc1OC1CCCC1)OC1(CCN(CCNC(=O)c3c(Cl)cccc3Cl)CC1)CC2O` (centres unmarked): 8.54; for `O=C(NCCN1CCC2(CCc3cc(Cl)c(OC4CCCC4)cc3O2)CC1)c1c(Cl)cccc1Cl`: 10.10.
`CNc1cc(C)cc2c1OC1(CCN(CCNC(=O)c3c(Cl)cccc3Cl)CC1)NC2=O`: the “pIC50 values for ENT1 transporter inhibition” value is 7.18.
To `CN1CCC(Nc2cc3c(cc2Cl)C(=O)CC2(CCN(CCNC(=O)c4c(Cl)cccc4Cl)CC2)O3)CC1` belongs 7.20; to `Cc1cc2c(cc1N(C)C(=O)CC1CCCC1)OC1(CCN(CCNC(=O)c3c(Cl)cccc3Cl)CC1)CC2=O`, 8.485.
With `Cc1cccc(C)c1C(=O)NCCN1CCC2(CC1)CC(=O)c1cc(Cl)c(NCCCO)cc1O2`, the “pIC50 values for ENT1 transporter inhibition” value was 7.91.
To `CC(=O)Nc1cc2c(cc1Cl)C(=O)NC1(CCN(CCNC(=O)c3c(Cl)cccc3Cl)CC1)O2` belongs 7.31.
As for `COc1cc(Cl)cc2c1OC1(CCN(CCNC(=O)c3c(Cl)cccc3Cl)CC1)NC2=O`, the “pIC50 values for ENT1 transporter inhibition” value is recorded as 7.725.
The same measure for `Cc1cccc(C)c1C(=O)NCCN1CCC2(CC1)NC(=O)c1cc(Cl)c(NC3CCCC3)cc1O2`: 7.96; for `COc1cc(Cl)cc2c1OC1(CCN(CCNC(=O)c3c(C)cccc3C)CC1)NC2=O`: 6.5.
The same measure for `CN(C)c1ccc2c(c1)OC1(CCN(CCNC(=O)c3c(Cl)cccc3Cl)CC1)NC2=O`: 8.35; for `Cc1cc(NC2CCOCC2)c2c(c1)C(=O)NC1(CCN(CCNC(=O)c3c(Cl)cccc3Cl)CC1)O2`: 8.71; for `Cc1cc2c(cc1NCC1CCCC1)OC1(CCN(CCNC(=O)c3c(Cl)cccc3Cl)CC1)CC2=O`: 9.46.
In the case of `O=C1NC2(CCN(CCNC(=O)c3c(Cl)cccc3Cl)CC2)Oc2c(OC3CCCC3)cc(Cl)cc21`, the “pIC50 values for ENT1 transporter inhibition” value turned out to be 7.95.
For the compound `Cc1cc2c(cc1OC(C)C)OC1(CCN(CCNC(=O)c3c(Cl)cccc3Cl)CC1)CC2=O`, the “pIC50 values for ENT1 transporter inhibition” value worked out at 9.41.
The same measure for `COCCCNc1cc2c(cc1Cl)C(=O)CC1(CCN(CCNC(=O)c3c(C)cccc3C)CC1)O2`: 8.43.
To `Nc1ccc2c(c1)OC1(CCN(CCNC(=O)c3c(Cl)cccc3Cl)CC1)CC2=O` belongs 7.22; to `CC(=O)N1CCC(Nc2cc3c(cc2Cl)C(=O)CC2(CCN(CCNC(=O)c4c(C)cccc4C)CC2)O3)CC1`, 7.65; to `CC(=O)N1CCC(Oc2ccc3c(c2Cl)OC2(CCN(CCNC(=O)c4c(Cl)cccc4Cl)CC2)NC3=O)CC1`, 8.06.
The same measure for `Cc1cc(O)c2c(c1)C(=O)CC1(CCN(CCNC(=O)c3c(Cl)cccc3Cl)CC1)O2`: 7.005.
As to `CN1CCN(c2cc3c(cc2Cl)C(=O)NC2(CCN(CCNC(=O)c4c(Cl)cccc4Cl)CC2)O3)CC1`, the “pIC50 values for ENT1 transporter inhibition” value was 7.96.
Consider `O=C1CC2(CCN(CCNC(=O)c3c(Cl)cccc3Cl)CC2)Oc2cc(NCCO)c(Cl)cc21`, for which the “pIC50 values for ENT1 transporter inhibition” value is recorded as 8.78.
`COc1ccc2c(c1)OC1(CCN(CCNC(=O)c3c(Cl)cccc3Cl)CC1)NC2=O`: the “pIC50 values for ENT1 transporter inhibition” value is reported as 7.35.
Consider `CC(=O)Nc1cc2c(cc1C)C(=O)CC1(CCN(CCNC(=O)c3c(Cl)cccc3Cl)CC1)O2`, for which the “pIC50 values for ENT1 transporter inhibition” value is given as 7.24.
Consider `Cc1cc2c(c(N3CCOCC3)c1)OC1(CCN(CCNC(=O)c3c(C)cccc3C)CC1)NC2=O`, for which the “pIC50 values for ENT1 transporter inhibition” value amounted to 6.19.
To `O=C(NCCN1CCC2(CC1)CC(O)c1cc(Cl)c(Br)cc1O2)c1c(Cl)cccc1Cl` (centres unmarked) belongs 7.74.
